# From the SangsterLogP compilation
# Experiment: method code SF-GLC, from DOI: 10.1002/qsar.19850040403
# Settings: pH 13.0
smiles,measurement,value
NC1CCCCC1,logD,1.49
